# Data as given in PubChem BioAssay AID602124 (The Scripps Research Institute Molecular Screening Center, 2011).
# Chains of the proteins cited; added tags and fusions are not shown.
# UniProt P00519, whole entry, looked up: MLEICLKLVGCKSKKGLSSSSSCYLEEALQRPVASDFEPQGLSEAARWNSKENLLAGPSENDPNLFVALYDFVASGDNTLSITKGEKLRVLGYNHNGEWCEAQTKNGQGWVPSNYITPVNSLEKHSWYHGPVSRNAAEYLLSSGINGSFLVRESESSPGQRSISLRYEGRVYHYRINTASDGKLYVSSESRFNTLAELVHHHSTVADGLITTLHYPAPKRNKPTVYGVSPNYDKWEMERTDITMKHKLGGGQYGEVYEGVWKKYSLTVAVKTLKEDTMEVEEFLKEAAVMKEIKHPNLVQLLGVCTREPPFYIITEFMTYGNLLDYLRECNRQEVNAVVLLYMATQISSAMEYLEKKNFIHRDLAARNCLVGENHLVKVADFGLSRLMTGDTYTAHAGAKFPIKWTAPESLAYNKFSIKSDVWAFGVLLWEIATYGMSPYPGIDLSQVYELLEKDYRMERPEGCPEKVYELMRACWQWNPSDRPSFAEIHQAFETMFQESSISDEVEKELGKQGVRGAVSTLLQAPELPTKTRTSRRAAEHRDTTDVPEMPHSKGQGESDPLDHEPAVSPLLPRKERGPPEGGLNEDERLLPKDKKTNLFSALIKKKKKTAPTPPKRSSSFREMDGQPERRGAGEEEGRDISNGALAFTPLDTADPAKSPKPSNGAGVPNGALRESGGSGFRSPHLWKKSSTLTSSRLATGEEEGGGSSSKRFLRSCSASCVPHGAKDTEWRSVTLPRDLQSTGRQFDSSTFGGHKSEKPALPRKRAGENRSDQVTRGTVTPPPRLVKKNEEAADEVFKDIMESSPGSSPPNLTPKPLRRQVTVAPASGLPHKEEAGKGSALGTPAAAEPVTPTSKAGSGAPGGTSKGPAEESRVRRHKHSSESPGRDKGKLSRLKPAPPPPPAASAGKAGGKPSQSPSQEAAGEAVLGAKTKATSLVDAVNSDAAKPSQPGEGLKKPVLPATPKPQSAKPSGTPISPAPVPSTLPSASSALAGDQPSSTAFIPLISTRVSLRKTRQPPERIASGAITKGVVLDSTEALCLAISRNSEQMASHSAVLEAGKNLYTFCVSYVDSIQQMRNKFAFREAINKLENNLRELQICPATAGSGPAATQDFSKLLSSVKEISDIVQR
# UniProt Q13671, whole entry, looked up: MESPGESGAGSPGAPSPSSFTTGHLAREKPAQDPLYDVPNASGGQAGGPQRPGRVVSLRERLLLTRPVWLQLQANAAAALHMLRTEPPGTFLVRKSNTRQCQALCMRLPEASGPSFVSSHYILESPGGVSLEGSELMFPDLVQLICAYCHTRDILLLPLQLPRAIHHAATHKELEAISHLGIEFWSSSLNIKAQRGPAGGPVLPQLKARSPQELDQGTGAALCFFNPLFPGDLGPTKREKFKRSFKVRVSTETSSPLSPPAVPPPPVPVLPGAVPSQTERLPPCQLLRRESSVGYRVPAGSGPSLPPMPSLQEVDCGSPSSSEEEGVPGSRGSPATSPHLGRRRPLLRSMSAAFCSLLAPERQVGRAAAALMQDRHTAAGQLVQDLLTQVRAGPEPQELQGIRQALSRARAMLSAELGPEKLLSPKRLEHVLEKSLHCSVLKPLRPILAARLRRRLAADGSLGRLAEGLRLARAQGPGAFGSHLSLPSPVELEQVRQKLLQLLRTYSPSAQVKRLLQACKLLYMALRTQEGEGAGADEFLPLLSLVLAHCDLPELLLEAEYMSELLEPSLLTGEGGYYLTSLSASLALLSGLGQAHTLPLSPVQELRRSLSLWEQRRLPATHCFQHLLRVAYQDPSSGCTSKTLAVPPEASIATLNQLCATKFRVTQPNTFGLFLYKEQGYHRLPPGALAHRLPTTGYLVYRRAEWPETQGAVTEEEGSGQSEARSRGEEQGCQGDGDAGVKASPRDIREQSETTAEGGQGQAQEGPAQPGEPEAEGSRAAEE
# The entries are a selection whose mix differs from that of the whole data set. Calls of active or inactive are those of the source. No stated cut-off is given here; in the data, active means inhibition above about 6.5%; inactive means the rest.
# Biological target: Tyrosine-protein kinase ABL1 (Homo sapiens) + Ras and Rab interactor 1 (Homo sapiens) (UniProt P00519+Q13671)
# Assay: disruptors of human Abl and Rin1 association – biochemical, TR-FRET, confirmation (AID 602124)
# Conditions: TR-FRET Rin1-Abl binding, purified proteins; at 7.35 µM; stronger effect = higher value
row,Structure (SMILES),inhibition
1,CCC(c1nnnn1C1CCCC1)N1CCC(n2c(=O)[nH]c3ccccc32)CC1 (stereo not given),active: 16.7%
2,O=c1[nH]c2ccccc2n1C1CCN(C(c2cc3ccccc3o2)c2nnnn2C2CCCCC2)CC1 (stereo not given),active: 12.9%
3,CCC(c1nnnn1C(C)(C)C)N1CCC(n2c(=O)[nH]c3ccccc32)CC1 (stereo not given),active: 15.4%
4,O=c1[nH]c2ccccc2n1C1CCN(C(c2cccs2)c2nnnn2C2CCCCC2)CC1 (stereo not given),active: 13%
5,CCC(c1nnnn1C1CCCCC1)N1CCC(n2c(=O)[nH]c3ccccc32)CC1 (stereo not given),active: 45%
